# ChEMBL document CHEMBL2346652
# Chains of the proteins cited; added tags and fusions are not shown. Lines headed by an entry give the natural chain unless they say otherwise; changes in a name come on top.
# UniProt P41145: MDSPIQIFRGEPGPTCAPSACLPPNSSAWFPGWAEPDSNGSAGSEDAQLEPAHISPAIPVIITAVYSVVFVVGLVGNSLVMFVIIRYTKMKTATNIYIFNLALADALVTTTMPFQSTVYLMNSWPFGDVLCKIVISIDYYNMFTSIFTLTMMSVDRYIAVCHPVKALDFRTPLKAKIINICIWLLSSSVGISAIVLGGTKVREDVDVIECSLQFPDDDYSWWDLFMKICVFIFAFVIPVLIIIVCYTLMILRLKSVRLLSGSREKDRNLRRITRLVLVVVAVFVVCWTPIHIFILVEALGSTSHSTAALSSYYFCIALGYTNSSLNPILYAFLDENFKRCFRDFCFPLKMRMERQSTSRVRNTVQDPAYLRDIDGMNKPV
# Target: Kappa-type opioid receptor (Homo sapiens) (UniProt P41145)
# Assay: Antagonist activity at human kappa opioid receptor expressed in CHO cell membrane assessed as inhibition of U50,488-induced [35S]GTPgammaS binding after 60 mins by liquid scintillation counting
smiles,measurement,value
C[C@H]1C2Cc3ccc(C(N)=O)cc3[C@@]1(C)CCN2CC1CC1,inhibition,inactive

# The source made the active and inactive calls. The rule behind the calls is not given here.
